# According to PubChem BioAssay AID595 (National Center for Advancing Translational Sciences (NCATS), 2007):
# The entries are a selection whose mix differs from that of the whole data set. Inconclusive results are not listed. Activity calls are given as the source filed them. Calls follow the shape of the dose curve; as a rule, active = well fitted curve in either direction with a large enough effect; inconclusive = small, poorly fitted or top-dose-only effect, or another doubt; inactive = flat fitted curve, though single readings scatter.
# Tested on: Hsp90 C-terminal peptide / TPR2A (Hop) interaction, human
# Test: qHTS Assay for Disrupters of an Hsp90 Co-Chaperone Interaction
# Conditions: AlphaScreen TPR2A-His6 binding biotin-Hsp90 C-terminal peptide; at 57 µM (top of the series) unless noted
# Excerpt: NIH Chemical Genomics Center [NCGC]
# NIH Molecular Libraries Screening Centers Network [MLSCN]
# Hsp90 (heat shock protein 90) is the essential molecular chaperone and it accounts for 1-2% of all cytosolic proteins and is critical for the activity of diverse cellular proteins that are involved in a variety of cellular processes, including development, cell cycle, and steroid hormone signaling. Its client proteins include signaling kinases such as IGF1R, Akt, v-Src, Raf-1; regulators of cell survival such as Bcr-Abl; and transcription factors such as mutated p53, estrogen and progesterone receptors. Hsp90 has emerged as an important target for cancer treatment due to its essential role in maintaining transformation and regulating the function of oncogenic signaling proteins.
# The in vivo function of Hsp90 is regulated by the binding and hydrolysis of ATP at its N-terminal. Geldanamycin binds to ATP site and inhibit Hsp90 function. Geldanamycin and its analogues are under clinical trials in cancer patients.
# This domain contains the binding site for tetratricopeptide repeat (TPR) domains on HOP (Hsp Organizing Protein). TPR is a structural motif used by a significant number of cochaperones by which the in vivo function of Hsp90 is regulated. TPR2A on HOP binds specifically to MEEVD motif of the C-terminal of Hsp90.
# A homogeneous AlphaScreen is developed to assess the interaction between TPR2A and MEEVD motif of the C-terminal of Hsp90 by using the isolated TPR2A domain and a synthesized 20mer Hsp90 C terminal peptide. AlphaScreen is two bead-based proximity-dependent chemical energy transfer luminescent assay platform. TPR2A-His-6 and biotinylated Hsp90 C terminal peptide will bring streptavidin donor beads and nickel chelate acceptor beads to a proximity range (less than 200 nm), and subsequently lead a chemical luminescent reaction upon exciting donor beads with 680 nm laser. Inhibition of TPR2A and MEEVD motif interaction by small molecules could attenuate or abolish this chemical luminescent reaction.
# Counter screening: Biotinylated-His-6 (PerkinElmer) can be utilized as a counter screen, as it serves as a linker to bring streptavidin beads and nickel chelate beads together. The counter screen can exclude alpha screen platform false positives due to small molecules being metal chelators, biotin analogues and imidazole analogues, or due to interfering with oxygen release from donor beads. Such an assay should be utilized to qualify any activity observed in this screen.
# NCGC Assay Protocol Summary:
# The assay was performed on 1536-well white plate (untreated solid bottom). Liquids were dispensed by 1536-well plate washer (Kalypsys, San Diego, CA). Plates were read on EnVision (PerkinElmer, Boston, MA).TPR2A-His6 was produced using a bacteria expression system and purified using a well developed method (Ghosh et al., 2000). Hsp90 C terminal 20-mer peptide with or without an N-terminal biotin group are synthesized using automated solid phase synthesis by the Yale Keck facility. The composition of assay buffer was (in mM) 25 HEPES, 100 KCl, 2 MgCl2 and 2 DTT; 0.1% BSA and 0.01% Tween-20. TPR2A-His6 binding to biotin-Hsp90 will bring streptavidin donor beads and nickel chelate acceptor beads (PerkinElmer) together and can be measured by Alpha reading by EnVision (PerkinElmer). Free Hsp90 blocks biotin-Hsp90 binding to TPR2 and serves as a positive control in the current asssay.
# The assay was performed at room temperature. All compounds were screened as titrations from […] to 46 uM final concentration. The assay was performed in 1536-well format plates (untreated white solid bottom, Corning Inc.) as follows:
# Sequence,Parameter,Value,Description
# 1,Reagent,3 uL TPR2A-His6,Final concentration was 5nM
# 2,Compound,23 nL,Final titration was from 0.7 nM to 46 uM
# 3,Time,15 minutes,Room temperature
# 4,Reagent,1 uL biotin-Hsp90,With and without free Hsp90. Final concentration was 10 nM for biotin-Hsp90 and 10uM for free Hsp90.
# 5,Time,1 hour,Room temperature
# […]
# % is scaled to controls: 0 for no effect and ±100 for the full control effect.
row,SMILES,"activity change, negative = inhibition"
1,CP(=O)(Nc1ccccc1F)Oc1ccccc1 (configuration not stated),inactive: -0.711%
2,CCC(C)(OO)OOC(C)(CC)OO (configuration not stated),inactive: 0.712%
3,Cc1cccc([N+](=O)[O-])c1[N+](=O)[O-],inactive: -1.87%
4,CN(C)CCOC(=O)C(O)(c1ccccc1)C1CCCCC1 (configuration not stated),inactive: -2%
5,Cc1ccc([N+](=O)[O-])c([N+](=O)[O-])c1,inactive: -4.72%
6,Cc1c([N+](=O)[O-])cccc1[N+](=O)[O-],inactive: 3.98%
7,CCOP(=O)(CC)OCC,inactive: -0.92%
8,CCOP(C)(=S)SCC(=O)NC(C)(CC)C(=O)O (configuration not stated),inactive: 1.95%
9,NNC(NN)NN.n1nc(-c2nn[nH]n2)n[nH]1,inactive: -2.14% [at 11 µM]
10,Cc1ccccc1NP(C)(=O)Nc1ccccc1C,inactive: -2.27%
11,[NH4+].[O-][Cl+3]([O-])([O-])[O-],inactive: -0.364%
12,CP(=O)(Nc1ccc2c(c1)OCCO2)Oc1ccccc1 (configuration not stated),inactive: -7.12%
13,CP(=O)(Oc1ccccc1)N1CCOC1=O (configuration not stated),inactive: -3.21%
14,C/C1=C2N=C(/C=C3N=C(/C(C)=C4\[N-][C@@](C)([C@H]5N=C1[C@@](C)(CCC(=O)NC[C@H](C)OP(=O)([O-])O[C@@H]1[C@H](O)[C@H](n6cnc7cc(C)c(C)cc76)O[C@@H]1CO)[C@@H]5CC(N)=O)[C@](C)(CC(N)=O)[C@H]4CCC(N)=O)[C@@](C)(CC(N)=O)[C@@H]\3CCC(N)=O)C(C)(C)[C@@H]/2CCC(N)=O.[C-]#N.[Co+3],inactive: -0.479% [at 26 µM]
15,COc1ccccc1OP(C)(=O)Nc1ccc(C)c(C)c1 (configuration not stated),inactive: -2.93%
16,Cc1nc2ccc3ccccc3c2o1.O=[N+]([O-])c1cc([N+](=O)[O-])c(O)c([N+](=O)[O-])c1,inactive: -6.66%
17,CP(=O)(Nc1ccccn1)Oc1ccccc1 (configuration not stated),inactive: -3.6%
18,O=[N+]([O-])[O-].[NH4+],inactive: -3.32%
19,COc1ccccc1OP(C)(=O)Nc1ccc(C)cc1 (configuration not stated),inactive: -0.664%
20,Cc1ccc(NP(C)(=O)Oc2ccccc2)c(C)c1 (configuration not stated),inactive: -8.58%
21,CP(=S)(Nn1cnnc1)Oc1ccccc1 (configuration not stated),inactive: -1.01%
22,CP(=O)(NC(=O)Nc1ccccc1)Oc1ccccc1 (configuration not stated),inactive: -2.36%
23,CCOP(C)(=S)SCC(=O)NC(C)C(=O)O (configuration not stated),inactive: 3.44%
24,Cc1nc2ccc3ccccc3c2s1.O=[N+]([O-])c1cc([N+](=O)[O-])c(O)c([N+](=O)[O-])c1,inactive: -0.255%
25,O=[N+]([O-])c1cccc([N+](=O)[O-])c1,inactive: -3.42%
26,Cc1ccc([N+](=O)[O-])cc1[N+](=O)[O-],inactive: -8.31%
27,Cc1ccc(C)c(NP(C)(=O)Oc2ccccc2)c1 (configuration not stated),inactive: -1.6%
